Measured values from PubChem BioAssay AID504462 (Sanford-Burnham Center for Chemical Genomics, 2011).
The list shows a part of the results, in another mix than the full data. Activity calls are given as the source filed them. Cut-off read from the data, not from the text of the source: active = inhibition above about 40%; inactive = the rest.

The chains behind the UniProt entries cited, without tags or fusion partners. Where a name states a change or a piece, a line headed by the entry shows the natural chain unless it says otherwise.
UniProt Q9Y4P1: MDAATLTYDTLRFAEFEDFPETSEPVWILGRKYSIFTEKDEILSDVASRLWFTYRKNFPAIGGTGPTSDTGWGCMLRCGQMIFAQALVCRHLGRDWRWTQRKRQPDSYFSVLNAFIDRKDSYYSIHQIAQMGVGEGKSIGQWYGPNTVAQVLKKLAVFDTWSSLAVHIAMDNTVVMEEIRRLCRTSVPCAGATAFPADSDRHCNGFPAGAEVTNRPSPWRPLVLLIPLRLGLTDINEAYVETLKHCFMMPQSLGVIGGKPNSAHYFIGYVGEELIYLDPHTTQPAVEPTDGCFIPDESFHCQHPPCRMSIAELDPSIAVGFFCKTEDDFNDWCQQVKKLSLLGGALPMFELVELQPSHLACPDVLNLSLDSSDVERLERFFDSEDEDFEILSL

Target: Cysteine protease ATG4B (Homo sapiens) (UniProt Q9Y4P1)
Test: blockers of ATG4B cysteine protease activity – biochemical, fluorescence, uHTS, primary screen (AID 504462)
Details: ATG4B cleavage of LC3-PLA2, NBD-HPC fluorescence, 1 h; at 8.33 µM; active compounds read high

**Q.** How did the inhibition turn out when `CC(C)(C)C(=O)NC(Sc1ccncn1)C(Cl)(Cl)Cl` (centres undefined) was run?
**A.** inactive: 0.01%

**Q.** `O=[N+]([O-])c1ncn(CCn2ncnc2[N+](=O)[O-])n1` was tested. Which inhibition did it give?
**A.** inactive: -3.67%

**Q.** How did the inhibition turn out when `Cc1cc(SC(NC(=O)c2ccc(F)cc2)C(Cl)(Cl)Cl)ncn1` (centres undefined) was run?
**A.** inactive: -0.02%

**Q.** How did the inhibition turn out when `CCOP(=O)(Nc1ccccc1)OCC` was run?
**A.** inactive: -8.8%

**Q.** `Cc1ccc(NP(=O)(Oc2ccccc2F)Oc2ccccc2F)nc1` was tested. Which inhibition did it give?
**A.** inactive: -2.18%

**Q.** How did the inhibition turn out when `CN(C(=O)Cc1ccc(Cl)c(Cl)c1)[C@H]1CCCC[C@@H]1N1CCCC1` was run?
**A.** inactive: -3.27%

**Q.** Which inhibition does the source give for `CC(=O)Nc1ccc([As](=O)(O)O)cc1` here?
**A.** inactive: 4.62%

**Q.** How did the inhibition turn out when `O=C(O)c1ccccc1[As](=O)(O)O` was run?
**A.** inactive: -7.58%

**Q.** With `CCCC1OP(N)(=O)OCC1CC` (centres undefined) as the molecule, how does the inhibition read?
**A.** inactive: -3.12%

**Q.** With `O=P(Nc1nc2ccc(Cl)cc2s1)(c1ccccc1)c1ccccc1` as the molecule, how does the inhibition read?
**A.** inactive: -0.16%

**Q.** For `CCN(N=Nc1nonc1N)c1nonc1N`, which inhibition is on record?
**A.** inactive: 7.2%

**Q.** For `Nc1cccc2ccc([As](=O)(O)O)cc12`, which inhibition is on record?
**A.** inactive: 6.06%

**Q.** Which inhibition does the source give for `COc1ccccc1OP(=O)(Nc1ccc(C)cn1)Oc1ccccc1OC` here?
**A.** inactive: 3.56%

**Q.** Which inhibition does the source give for `Cc1ccc(OP(=O)(Nc2nccs2)Oc2ccc(C)cc2)cc1` here?
**A.** inactive: -5.7%

**Q.** `CN1CCCC(OC(=O)C(c2ccccc2)c2ccccc2)C1` (centres undefined) was tested. Which inhibition did it give?
**A.** inactive: -4.4%

**Q.** Which inhibition does the source give for `Clc1ccc(Cl)c(NC2=NCC(CBr)S2)c1` (centres undefined) here?
**A.** inactive: -6.01%

**Q.** `NC(=O)c1cc([N+](=O)[O-])cc([N+](=O)[O-])c1N` was tested. Which inhibition did it give?
**A.** inactive: -8.59%

**Q.** How did the inhibition turn out when `CN(C(=O)Cc1ccc(Cl)c(Cl)c1)[C@H]1CCCC[C@H]1N1CCCC1` was run?
**A.** inactive: -6.15%

**Q.** How did the inhibition turn out when `Cc1ccc(N/C(=N/P(=O)(N2CCOCC2)N2CCOCC2)N2CCOCC2)cc1` was run?
**A.** inactive: -2.69%

**Q.** How did the inhibition turn out when `Nc1cc(N)c2nonc2c1[N+](=O)[O-]` was run?
**A.** inactive: -10.8%

**Q.** Which inhibition does the source give for `CC(C)CC(=O)NC(Sc1ccc(Cl)cc1)C(Cl)(Cl)Cl` (centres undefined) here?
**A.** inactive: 13.1%

**Q.** How did the inhibition turn out when `Oc1ccccc1CNc1ccccn1` was run?
**A.** inactive: 6.05%

**Q.** With `O=C(NC(Sc1ccncn1)C(Cl)(Cl)Cl)c1ccccc1` (centres undefined) as the molecule, how does the inhibition read?
**A.** inactive: 7.46%

**Q.** For `CCc1cc(O)c([N+](=O)[O-])c(C)c1[N+](=O)[O-]`, which inhibition is on record?
**A.** inactive: -2.2%

**Q.** Which inhibition does the source give for `CC(C)(C)C(=O)NC(Sc1ccccc1)C(Cl)(Cl)Cl` (centres undefined) here?
**A.** inactive: -0.28%

**Q.** Which inhibition does the source give for `O=P1(Nc2nc3ccc(Cl)cc3s2)COc2ccccc2O1` (centres undefined) here?
**A.** inactive: 9.77%

**Q.** With `CCOc1ccc(C2=NCC(CBr)S2)cc1` (centres undefined) as the molecule, how does the inhibition read?
**A.** inactive: -9.38%

**Q.** Which inhibition does the source give for `CC(=O)Nc1ccc([As](=O)(O)O)c(O)c1` here?
**A.** inactive: -1.98%

**Q.** How did the inhibition turn out when `CC(=O)Nc1ccc(Oc2c([N+](=O)[O-])cc([N+](=O)[O-])cc2[N+](=O)[O-])cc1` was run?
**A.** inactive: -4.78%

**Q.** For `CC(=O)c1ccc(N2CC2c2ccncc2)cc1` (centres undefined), which inhibition is on record?
**A.** inactive: 3.74%

**Q.** With `N#C/C(=C\c1ccc(N(CCBr)CCBr)cc1)C(N)=O` as the molecule, how does the inhibition read?
**A.** inactive: -4.4%

**Q.** `COC(=O)C1(C)COP(=O)(NCc2ccccc2)OC1` (centres undefined) was tested. Which inhibition did it give?
**A.** inactive: -2.09%

**Q.** For `Cc1ccccc1CN(C)C(=O)COC(=O)C(O)(c1ccccc1)c1ccccc1`, which inhibition is on record?
**A.** inactive: -5.72%

**Q.** For `C[C@H]1OP(=O)(Oc2ccccc2)C[C@@H]2O[C@@H]21` (some centres undefined), which inhibition is on record?
**A.** inactive: 2.62%

**Q.** How did the inhibition turn out when `C[C@@H]1C=CCP(=O)(Oc2ccccc2)O1` (some centres undefined) was run?
**A.** inactive: -8.71%

**Q.** For `O=P1(N(CCCl)CCCl)OCCC2CCCCN21` (centres undefined), which inhibition is on record?
**A.** inactive: -0.07%

**Q.** Which inhibition does the source give for `CCNC(=S)/N=C(\N)N[N+](=O)[O-]` here?
**A.** inactive: -3.49%

**Q.** Which inhibition does the source give for `O=C(NC1CCS(=O)(=O)C1)NP(=S)(Oc1ccccc1)Oc1ccccc1` (centres undefined) here?
**A.** inactive: 0.85%

**Q.** With `c1ccc(-c2nn[nH]n2)c(-c2nn[nH]n2)c1` as the molecule, how does the inhibition read?
**A.** inactive: 5.65%

**Q.** Which inhibition does the source give for `Cc1ccc(NP(=O)(Oc2cccc(C)c2)Oc2cccc(C)c2)nc1` here?
**A.** inactive: -4.23%

**Q.** For `CC(NC(=O)COC(=O)C(O)(c1ccccc1)c1ccccc1)c1ccccc1` (centres undefined), which inhibition is on record?
**A.** inactive: -5.9%

**Q.** With `Cc1ccccc1OP(=O)(Nc1ccccn1)Oc1ccccc1C` as the molecule, how does the inhibition read?
**A.** inactive: 7.41%

**Q.** How did the inhibition turn out when `O=c1c2cc([N+](=O)[O-])ccc2[nH]c2c([N+](=O)[O-])cc([N+](=O)[O-])cc12` was run?
**A.** inactive: 2.92%

**Q.** With `CN(C)C(=O)Oc1noc2ccccc12` as the molecule, how does the inhibition read?
**A.** inactive: -8.78%

**Q.** With `COC(=O)c1cc2c(s1)N=C(c1ccccc1)N(C)P2(=O)N1CCOCC1` (centres undefined) as the molecule, how does the inhibition read?
**A.** inactive: 4.24%

**Q.** For `Cc1ccc(OP(=O)(Nc2ccccn2)Oc2ccc(C)cc2)cc1`, which inhibition is on record?
**A.** inactive: -10.8%

**Q.** With `CC(=O)NC(SC(=S)N(CC(C)C)CC(C)C)C(Cl)(Cl)Cl` (centres undefined) as the molecule, how does the inhibition read?
**A.** inactive: -1.65%

**Q.** With `O=C(OC1CN2CCC1CC2)c1ccccc1` (centres undefined) as the molecule, how does the inhibition read?
**A.** inactive: 0.81%

**Q.** For `CCC(=O)N1C2C3N(C(=O)CC)C1C1N(C(=O)CC)C(C(N1C(=O)CC)N3C(=O)CC)N2C(=O)CC`, which inhibition is on record?
**A.** inactive: -10.1%

**Q.** How did the inhibition turn out when `O=P(Nc1nc2ccccc2s1)(c1ccccc1)c1ccccc1` was run?
**A.** inactive: -2.3%

**Q.** With `C[C@H]1OP(=O)(Oc2ccccc2)[C@H](O)[C@H](O)[C@H]1N=[N+]=[N-]` (some centres undefined) as the molecule, how does the inhibition read?
**A.** inactive: -0.98%

**Q.** For `COc1ccc(N)c([N+](=O)[O-])c1[N+](=O)[O-]`, which inhibition is on record?
**A.** inactive: -5.56%

**Q.** Which inhibition does the source give for `O=P(Nc1ccccn1)(c1ccc(Br)cc1)c1ccc(Br)cc1` here?
**A.** inactive: -7.13%

**Q.** For `CN(C)C1(CNC(=O)c2ccc(Cl)c(S(N)(=O)=O)c2)CCCCC1`, which inhibition is on record?
**A.** inactive: 1.68%

**Q.** With `C(Cc1nn[nH]n1)Cc1nn[nH]n1` as the molecule, how does the inhibition read?
**A.** inactive: 7.95%

**Q.** `Nc1ccc([As](=O)(O)c2ccc([N+](=O)[O-])cc2)cc1` was tested. Which inhibition did it give?
**A.** inactive: -6.01%

**Q.** For `O=C(OC1CN2CCC1CC2)c1cccc(Cl)c1` (centres undefined), which inhibition is on record?
**A.** inactive: -5.74%

**Q.** `O=[N+]([O-])c1ccc(O)c(/C=N/Nc2ccc([N+](=O)[O-])cc2[N+](=O)[O-])c1` was tested. Which inhibition did it give?
**A.** inactive: 7.56%

**Q.** `O=[N+]([O-])c1ncn(CCn2cnc([N+](=O)[O-])n2)n1` was tested. Which inhibition did it give?
**A.** inactive: 3.22%

**Q.** Which inhibition does the source give for `CC(=O)NC(SC(=S)N(C)C)C(Cl)(Cl)Cl` (centres undefined) here?
**A.** inactive: 5.16%

**Q.** Which inhibition does the source give for `O=[As](O)(c1ccccc1)c1ccc(O)cc1` here?
**A.** inactive: -0.34%

**Q.** `c1nnnn1CCn1cnnn1` was tested. Which inhibition did it give?
**A.** inactive: 1.84%

**Q.** For `CC(C)C(=O)NC(Sc1ccccc1)C(Cl)(Cl)Cl` (centres undefined), which inhibition is on record?
**A.** inactive: 6.31%

**Q.** With `O=P(Nc1nccs1)(c1ccccc1)c1ccccc1` as the molecule, how does the inhibition read?
**A.** inactive: -0.01%
